Results on one compound are retold here after patent US11091495B2, “Substituted imidazo[1,2-c]pyrimidines as PRC2 inhibitors” (Mirati Therapeutics, Inc., priority 2018, dated 2021).

The chains behind the UniProt entries cited, without tags or fusion partners.
UniProt O75530, whole entry, looked up: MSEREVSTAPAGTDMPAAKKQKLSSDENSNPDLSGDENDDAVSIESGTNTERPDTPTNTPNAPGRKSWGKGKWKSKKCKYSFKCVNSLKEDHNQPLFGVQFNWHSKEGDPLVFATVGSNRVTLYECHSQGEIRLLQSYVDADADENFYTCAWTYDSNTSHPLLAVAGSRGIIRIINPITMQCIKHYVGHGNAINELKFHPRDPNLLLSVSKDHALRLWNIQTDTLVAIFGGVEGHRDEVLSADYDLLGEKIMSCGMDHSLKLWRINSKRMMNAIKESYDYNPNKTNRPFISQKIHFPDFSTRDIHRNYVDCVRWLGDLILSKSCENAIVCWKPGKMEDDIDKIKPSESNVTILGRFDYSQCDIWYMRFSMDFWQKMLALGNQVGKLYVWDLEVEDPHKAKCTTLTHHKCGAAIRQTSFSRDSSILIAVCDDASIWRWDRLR

SMILES strings stand for the structures.

In this assay the target is purified human, His-tagged PRC2 complex (Homo sapiens (Human), UniProt O75530). The assay is described as follows: Hot Spot HMT assay of PRC2 enzymatic activity. It counts as biochemical. To be noted: read-out: IC50, Inhibition of PRC2-mediated Enzymatic Activity; 10 nM PRC2 complex, core histone H3, 1 uM 3H-SAM, 1 hr at 30° C.

As to `Cc1cc(-c2cnc(NCc3cccc4c3CCCO4)n3cc(C#N)nc23)n(C)n1`, the IC50 is over 0.5 µM.

The IC50 is the concentration needed to halve the response being measured.
